For one test, the target named is T1, GlyT2 L576I mutant (Rattus norvegicus, UniProt P58295, L576I).
T1 construct: expressed in transfected cells; host or cells: COS7
T1 sequence (P58295 1-799 L576I): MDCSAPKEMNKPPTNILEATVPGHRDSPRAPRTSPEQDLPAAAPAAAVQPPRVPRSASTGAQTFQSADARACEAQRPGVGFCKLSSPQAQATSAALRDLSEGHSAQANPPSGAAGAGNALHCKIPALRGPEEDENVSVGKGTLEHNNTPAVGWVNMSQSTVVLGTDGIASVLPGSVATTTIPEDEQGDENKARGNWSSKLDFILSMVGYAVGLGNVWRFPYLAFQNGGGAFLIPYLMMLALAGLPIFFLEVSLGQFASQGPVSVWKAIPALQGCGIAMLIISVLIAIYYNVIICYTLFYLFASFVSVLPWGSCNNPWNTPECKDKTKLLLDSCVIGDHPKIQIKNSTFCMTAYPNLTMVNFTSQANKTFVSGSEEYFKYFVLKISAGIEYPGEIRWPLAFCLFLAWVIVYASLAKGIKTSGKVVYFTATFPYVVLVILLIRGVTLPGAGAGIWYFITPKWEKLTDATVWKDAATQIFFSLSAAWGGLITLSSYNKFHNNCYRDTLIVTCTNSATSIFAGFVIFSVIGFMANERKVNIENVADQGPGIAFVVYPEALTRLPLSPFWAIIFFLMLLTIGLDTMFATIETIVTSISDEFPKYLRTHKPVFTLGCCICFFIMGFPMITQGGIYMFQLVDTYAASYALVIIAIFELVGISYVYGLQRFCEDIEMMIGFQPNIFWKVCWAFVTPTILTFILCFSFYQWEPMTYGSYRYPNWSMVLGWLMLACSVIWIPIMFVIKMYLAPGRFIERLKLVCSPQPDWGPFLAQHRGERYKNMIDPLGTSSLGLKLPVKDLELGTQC
In words: [3H]glycine transport by GlyT2 mutant in COS7 cells. The class given is cell-based.

A further test deals with T2, GlyT2 S481G mutant (Rattus norvegicus, UniProt P58295, S481G).
T2 construct: expressed in transfected cells; host or cells: COS7
T2 sequence (P58295 1-799 S481G): T1 sequence (P58295 1-799 L576I) with S481G, I576L
The test is described as above. In kind it is cell-based.

One may read the EC50 as the concentration at which the effect is half-maximal. Lower therefore signals an effect from little substance.

Each structure is given as a SMILES string. Positions count from the first letter of the chain named.

With `NCC(=O)O` [Gly, glycine], the concentration for a half-maximal effect (EC50) on GlyT2 L576I mutant is 372 ± 40 µM; on GlyT2 S481G mutant it was 149 ± 11 µM.
